This note sets out measurements from patent EP0591583B1, “Benzo (f) quinolinones as 5-alpha-reductase inhibitors” (ELI LILLY AND COMPANY, priority 1992, dated 1994).

This assay has as its target T1, 5α-reductase (Homo sapiens, UniProt P18405).
T1 construct: host or cells: Hs68 human genital skin fibroblasts
T1 sequence (P18405 1-259): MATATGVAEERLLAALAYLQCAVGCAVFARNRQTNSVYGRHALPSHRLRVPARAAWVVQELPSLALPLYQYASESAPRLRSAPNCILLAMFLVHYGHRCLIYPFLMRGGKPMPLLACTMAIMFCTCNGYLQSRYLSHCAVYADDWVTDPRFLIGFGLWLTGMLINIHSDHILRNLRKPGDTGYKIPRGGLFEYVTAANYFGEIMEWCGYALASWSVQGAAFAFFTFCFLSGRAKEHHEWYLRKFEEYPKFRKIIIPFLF
Nature of the assay: 5α-Reductase activity in Hs68 human genital skin fibroblasts (conversion of labeled testosterone, TLC analysis). The format is cell-based. The settings on record: Hs68, test compound 0.316 µM; Hs68 cells; substrate testosterone 12 µM; incubated four hours. On the procedure: Cell Culture: 5α-Reductase activity was measured using Hs68 human genital skin fibroblasts which were originally purchased from the American Type Culture Collection (Rockville, MD). The cells were grown in Dulbecco's Modified Eagle's Medium (DMEM) plus 10% stripped fetal bovine serum which was supplemented with amphotericin B ([…]) and gentamicin ([…]) (GIBCO, Grand Island, NY). The serum was stripped of endogenous steroids by incubation with dextran-coated charcoal prior to its addition to the media. The cells were maintained at 37°C in an atmosphere of 95% air, 5% CO2 and were passaged every 7-10 days by exposure to a trypsin-EDTA solution (0.025% trypsin, 0.265 mM EDTA). […]
At the end of the incubation the media was collected and transferred to an extraction tube containing 5 ml of toluene-ethanol (9:1), to which has been added 20-250 µg each of unlabeled carrier steroids (estriol, estradiol, estrone, 5α-androstan-3α,17β-diol, 5α-androstan-3β,17β-diol, 4-androstene-3,17-dione, 5α-androstan-3,17-dione, testosterone, and 5α-dihydrotestosterone) (Steraloids, Inc., Wilton, NH). […] The [^14C]-steroids were included as recovery standards to quantify procedural losses. […] The organic phase was collected and the samples taken to dryness, redissolved in dichloromethane-methanol (9:1) and were analyzed by thin layer chromatography using one of the methods described below. […]

As a reminder, the inhibition is the change of the read-out against control, counted positive when it falls. A high value points to strong suppression.

Compound `CN1C(=O)C=C[C@]2(C)c3ccc(Cl)cc3CC[C@@H]12` [Example 60, (R)(+)-trans-4-methyl-8-chloro-10b-methyl-3,4,4a,5,6,10b-hexahydrobenzo[f]quinolin-3-one] registered an inhibition at 0.316 µM of 86.7%.
